The target in assay [1] is T1, MR (UAS-MR-bla HEK293 cells) (Homo sapiens, UniProt P08235). The assay is described as follows: cell-based. The settings on record: Test B2 IC50 (nM), aldosterone 1 nM.
For assay [2], the target named is T1, MR (UAS-MR-bla HEK293 cells). The assay can be described thus: Mineralocorticoid Cellular Reporter Gene Assay, Test B1 (0.25 nM aldosterone). The settings on record: aldosterone 0.25 nM.
Assay [3] has as its target T2, human MR LBD (Homo sapiens (Human), UniProt P08235). The assay can be described thus: Mineralocorticoid Binding, Test A1 (SPA beads, 3H-aldosterone displacement). Conditions: displacement of 5 nM 3H-aldosterone, MBP-MR LBD/P23 lysate.
Assay [4] has as its target T2, human MR LBD. The settings on record: read-out: Test A2 IC50; displacement of 5 nM 3H-aldosterone, MBP-MR LBD/P23 lysate, Imaging beads.

By UniProt entry, the sequences of proteins in these tests, tags left out. Residues count along the entry.
UniProt P08235, 729-984 limits assumed: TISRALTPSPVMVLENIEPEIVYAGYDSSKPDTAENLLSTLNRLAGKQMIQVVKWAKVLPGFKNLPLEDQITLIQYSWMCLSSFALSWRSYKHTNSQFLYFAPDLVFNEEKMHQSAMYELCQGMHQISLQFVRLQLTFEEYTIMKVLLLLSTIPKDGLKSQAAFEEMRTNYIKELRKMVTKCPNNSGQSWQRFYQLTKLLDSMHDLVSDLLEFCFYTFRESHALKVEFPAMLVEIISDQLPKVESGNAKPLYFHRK

pIC50: −log10 of the molar value. Read-outs that look alike come from different tables or passages of the source.

For the molecule `CNC(=O)CC1COc2ccccc2N1C(=O)c1ccc2c(c1)NC(=O)CO2` (single isomer, unassigned) [Example 2a, N-Methyl-2-{3S or 3R)-4-[(3-oxo-3,4-dihydro-2H-1,4-benzoxazin-6-yl)carbonyl]-3,4-dihydro-2H-1,4-benzoxazin-3-yl}acetamide], the IC50 in assay [1] was determined as 140 nM; in assay [2] it was 680 nM. The same molecule showed a pIC50 on human MR LBD [3] of 6.64.
Consider `CNC(=O)CC1COc2ccccc2N1C(=O)c1ccc2c(c1)NC(=O)CO2` (single isomer, unassigned) [Example 2b, N-Methyl-2-{3S or 3R)-4-[(3-oxo-3,4-dihydro-2H-1,4-benzoxazin-6-yl)carbonyl]-3,4-dihydro-2H-1,4-benzoxazin-3-yl}acetamide], for which the IC50 in assay [1] came to 5300 nM.
`CNC(=O)CC1COc2ccccc2N1C(=O)c1ccc2c(c1)NC(=O)CO2` (stereo not shown) [Example 2]: in assay [1], the IC50 came out at 300 nM. In addition, on human MR LBD [4], the negative logarithm of the IC50 (pIC50) is 5.74.
As for `NC(=O)C[C@H]1COc2cc(Cl)ccc2N1C(=O)c1ccc2c(c1)NC(=O)CO2` [Example 5a, 2-{(3S)-7-Chloro-4-[(3-oxo-3,4-dihydro-2H-1,4-benzoxazin-6-yl)carbonyl]-3,4-dihydro-2H-1,4-benzoxazin-3-yl}acetamide], 56 nM corresponded to half-maximal inhibition in assay [2] (IC50). On human MR LBD [3], the pIC50 is 7.80.
`NC(=O)C[C@@H]1COc2cc(Cl)ccc2N1C(=O)c1ccc2c(c1)NC(=O)CO2` [Example 5b, 2-{(3R)-7-Chloro-4-[(3-oxo-3,4-dihydro-2H-1,4-benzoxazin-6-yl)carbonyl]-3,4-dihydro-2H-1,4-benzoxazin-3-yl}acetamide] returned an IC50 in assay [2] of 10400 nM. At human MR LBD [3], this molecule showed a pIC50 of 5.31.
As to `CNC(=O)CC1COc2cc(Cl)ccc2N1C(=O)c1ccc2c(c1)NC(=O)CO2` (stereo not shown) [Example 6, 2-{7-Chloro-4-[(3-oxo-3,4-dihydro-2H-1,4-benzoxazin-6-yl)carbonyl]-3,4-dihydro-2H-1,4-benzoxazin-3-yl}-N-methylacetamide], the half-maximal inhibitory concentration (IC50) in assay [1] was found to be 31 nM; in assay [2], 180 nM.
On to `CNC(=O)C[C@H]1COc2cc(Cl)ccc2N1C(=O)c1ccc2c(c1)NC(=O)CO2` [Example 6a, 2-{(3S)-7-Chloro-4-[(3-oxo-3,4-dihydro-2H-1,4-benzoxazin-6-yl)carbonyl]-3,4-dihydro-2H-1,4-benzoxazin-3-yl}-N-methylacetamide], for which the IC50 was 8.4 nM in assay [1] and 74 nM in assay [2].
On the same counts, the results for `CNC(=O)C[C@@H]1COc2cc(Cl)ccc2N1C(=O)c1ccc2c(c1)NC(=O)CO2` [Example 6b, 2-{(3R)-7-Chloro-4-[(3-oxo-3,4-dihydro-2H-1,4-benzoxazin-6-yl)carbonyl]-3,4-dihydro-2H-1,4-benzoxazin-3-yl}-N-methylacetamide] are 1100 nM and 4100 nM.
In the case of `CNC(=O)CC1COc2cc(Br)ccc2N1C(=O)c1ccc2c(c1)NC(=O)CO2` (stereo not shown) [Example 8, 2-{7-Bromo-4-[(3-oxo-3,4-dihydro-2H-1,4-benzoxazin-6-yl)carbonyl]-3,4-dihydro-2H-1,4-benzoxazin-3-yl}-N-methylacetamide], the IC50 came to 15 nM in assay [1] and 110 nM in assay [2]. On human MR LBD [3], this molecule had a negative-log IC50 (pIC50) of 7.40.
In the case of `CNC(=O)C[C@@H]1COc2cc(Br)ccc2N1C(=O)c1ccc2c(c1)NC(=O)CO2` [Example 8a, 2-{(3R)-7-Bromo-4-[(3-oxo-3,4-dihydro-2H-1,4-benzoxazin-6-yl)carbonyl]-3,4-dihydro-2H-1,4-benzoxazin-3-yl}-N-methylacetamide], the IC50 in assay [1] came out at 640 nM; in assay [2] it was 1800 nM. In addition, the negative-log IC50 (pIC50) on human MR LBD [3] is 5.80.
In the same order, the values of `CNC(=O)C[C@H]1COc2cc(Br)ccc2N1C(=O)c1ccc2c(c1)NC(=O)CO2` [Example 8b, 2-{(3S)-7-Bromo-4-[(3-oxo-3,4-dihydro-2H-1,4-benzoxazin-6-yl)carbonyl]-3,4-dihydro-2H-1,4-benzoxazin-3-yl}-N-methylacetamide] are 21 nM, 48 nM and 8.00.
